In the test the target is wild type HCV NS3 serine protease domain, genotype 1a (Hepatitis C virus genotype 1a, UniProt P27958). It is filed as biochemical.

Protein sequences, listed by entry. Tags and fused reporters are not part of them. Residues count along the entry.
UniProt P27958, 1027-1208: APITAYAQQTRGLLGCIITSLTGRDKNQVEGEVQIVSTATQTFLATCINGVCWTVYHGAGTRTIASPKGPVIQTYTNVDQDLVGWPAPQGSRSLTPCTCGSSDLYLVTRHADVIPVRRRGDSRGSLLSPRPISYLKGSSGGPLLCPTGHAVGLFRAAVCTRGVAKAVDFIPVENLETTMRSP

The values below come from patent US7884199B2, “HCV NS3-NS4 protease resistance mutants” (priority 2003, dated 2011).

Usually Ki stands for a dissociation constant, usually derived from enzyme kinetics or from competition with a known ligand. In the case of BILN 2061, the affinity, expressed as Ki, was 6 nM.
